Laboratory results reported in patent US10130633B2, “Compounds” (BAYER PHARMA AKTIENGESELLSCHAFT, priority 2013, dated 2018).

Key:
[1] = system: constitutive active colorectal cancer cell (CRC) Wnt pathway; assay: HCT116 TOPFlash cellular reporter assay (Super TopFlash luciferase), constitutive active Wnt pathway; format: cell-based; settings: HCT116 TOP reporter cells, 36 hours incubation, luciferase expression
Source text: In order to discover and characterize small molecules which inhibit the constitutive active colorectal cancer cell (CRC) Wnt pathway, a cellular reporter assay was employed. The corresponding assay cell was generated by transfection of the colorectal cancer cell line HCT116 (ATCC, #CCL-247) with the Super TopFlash vector (Morin, Science 275, 1997, 1787-1790; Molenaar et al., Cell 86 (3), 1996, 391-399). […] Stable transfectants were generated by cotransfection with pcDNA3 and selection of stable transfected cells with 1 mg/ml G418.

[2] = system: HCT116 FOP control reporter cell line; assay: HCT116 FOPFlash control reporter assay (FOP control vector, non-functional TCF elements); format: cell-based; settings: HCT116 FOP control reporter cells, 36 hours incubation, luciferase expression
Source text: (§1) In a parallel approach, HCT116 cells were cotransfected with the FOP control vector and pcDNA3. The FOP vector is identical to the TOP construct, but it contains instead of functional TCF elements a randomized, non-functional sequence. For this transfection a stable transfected cell line was generated as well.

wildtype Wnt pathway = assay: HEK293 TOP reporter assay, wildtype Wnt pathway stimulated with Wnt-3a; format: cell-based, human; settings: HEK293 TOP cells, EC50 concentration of recombinant Wnt-3a, 16 hours; read-out: HEK TOP OncoFlash IC50
Experimental: (§2) Measurement of luciferase expression was done as described for the constitutive active Wnt assay.
In order to discover and characterize small molecules which inhibit the wildtype Wnt pathway, a cellular reporter assay was employed. […] Stable transfectants were generated by selection with 300 μg/ml Hygromycin.

[3] = system: HEK293 FOP control reporter cell line; assay: HEK293 FOP control reporter assay; format: cell-based, human; settings: read-out: HEK FOP IC50
Experimental: as §2
as §1, with “HEK293” for “HCT116”, “well, based on selection with Geneticin (1 mg/ml).” for “well.”

[4] = HEK293 FOP control cells, EC50 concentration of recombinant Wnt-3a, 16 hours

In the case of `C[C@@H](C(=O)Nc1cc(C(=O)Nc2ccc(-c3ccccc3F)nc2)ccc1OC(F)(F)F)N1CCOCC1` (single isomer, unassigned) [Example 8, N-[6-(2-fluorophenyl)pyridin-3-yl]-3-{[(2S)-2-(morpholin-4-yl)propanoyl]amino}-4-(trifluoromethoxy)benzamide or N-[6-(2-fluorophenyl)pyridin-3-yl]-3-{[(2R)-2-(morpholin-4-yl)propanoyl]amino}-4-(trifluoromethoxy)benzamide], the IC50 [1] is reported as 0.051 µM, the IC50 [2] is reported as 8.35 µM and the IC50 (wildtype Wnt pathway) is reported as 0.13 µM. For the same compound, the IC50 [3, 4] was 8.1 µM.

For `CC(C)(C(=O)Nc1cc(C(=O)Nc2ccc(-c3ccccc3F)nc2)ccc1OC(F)(F)F)N1CCOCC1` [Example 11, N-[6-(2-fluorophenyl)pyridin-3-yl]-3-{[2-methyl-2-(morpholin-4-yl)propanoyl]amino}-4-(trifluoromethoxy)benzamide], the IC50 ([1]; Homo sapiens, HCT-116, 36 h) was 0.727 µM, the IC50 ([2]; Homo sapiens, HCT-116, 36 h) was at least 50 µM and the IC50 (wildtype Wnt pathway) was 0.7 µM. The IC50 ([3]; Homo sapiens, HEK293, 16 h) was 8.1 µM.

For `C[C@H](C(=O)Nc1cc(C(=O)Nc2ccc(-c3ccc(N)cc3)nc2)ccc1OC(F)(F)F)N1CCOCC1` (single isomer, unassigned) [Example 117, N-[6-(4-aminophenyl)pyridin-3-yl]-3-{[(2R)-2-(morpholin-4-yl)propanoyl]amino}-4-(trifluoromethoxy)benzamide or N-[6-(4-aminophenyl)pyridin-3-yl]-3-{[(2S)-2-(morpholin-4-yl)propanoyl]amino}-4-(trifluoromethoxy)benzamide], the IC50 [1] was 0.018 µM, the IC50 [2] was 44.5 µM and the IC50 (wildtype Wnt pathway) was 0.014 µM. The IC50 [3, 4] was 10 µM.

`Cc1ccc(NC(=O)c2ccc(-c3ccccc3)s2)cc1NC(=O)CN1CCOCC1` [Example 22, N-{4-methyl-3-[(morpholin-4-ylacetyl)amino]phenyl}-5-phenylthiophene-2-carboxamide] gave an IC50 ([1]; Homo sapiens, HCT-116, 36 h) of 0.695 µM, an IC50 ([2]; Homo sapiens, HCT-116, 36 h) of at least 50 µM and an IC50 (wildtype Wnt pathway) of 1.1 µM. For the same compound, the IC50 ([3]; Homo sapiens, HEK293, 16 h) was 24 µM.

Like-named read-outs stand apart in the source and are kept apart here.
